# Measured values as given in patent publication US12329745B2, “Methods and compositions for treating glucocorticoid excess” (Sparrow Pharmaceuticals, Inc., priority 2022, dated 2025).
# By UniProt entry, the sequences of proteins in these tests, tags left out. Where a name states a change or a piece, a line headed by the entry shows the natural chain unless it says otherwise.
# UniProt P28845: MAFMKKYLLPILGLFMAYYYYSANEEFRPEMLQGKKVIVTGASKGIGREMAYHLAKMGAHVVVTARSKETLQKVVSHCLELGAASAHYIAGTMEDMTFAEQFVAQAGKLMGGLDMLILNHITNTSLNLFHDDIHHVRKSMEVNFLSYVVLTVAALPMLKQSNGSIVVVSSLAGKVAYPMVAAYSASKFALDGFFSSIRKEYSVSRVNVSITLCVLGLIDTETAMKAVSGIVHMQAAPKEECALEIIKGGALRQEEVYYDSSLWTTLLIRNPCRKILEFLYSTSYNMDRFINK
# Target: HSD-1 (Homo sapiens, UniProt P28845)
# Test: Surface plasmon resonance binding kinetics in presence of NADPH (residence time)
# Settings: 300 μM NADPH; reciprocal of the dissociation rate constant
# Description: Pseudo-irreversible HSD-1 inhibitors can be identified via in vitro enzyme kinetics evaluation, in which they are expected to show longer enzyme residence times compared to other HSD-1 inhibitors. Surface plasmon resonance (SPR) is the resonant oscillation of conduction electrons at the interface between negative and positive permittivity material stimulated by incident light. When a protein is bound to a surface, SPR can be used to detect ligand binding to the protein. […] Association and dissociation of test compounds were monitored in the presence of 300 µM NADPH throughout the experiment.
substance,measurement,value
BVT-2733,Residence Time,65 s
